Tests used:
Assay in all cases: biochemical
D(2) dopamine receptor [1] = biological target: T1, D(2) dopamine receptor (Homo sapiens, UniProt P14416)
D(2) dopamine receptor [2] = biological target: T1, D(2) dopamine receptor; remark: listed apart in the source
D(3) dopamine receptor = D(3) dopamine receptor (Homo sapiens, UniProt P35462)

Sequences of proteins named here, by UniProt entry; tags and fusion partners are left off.
UniProt P14416, whole entry: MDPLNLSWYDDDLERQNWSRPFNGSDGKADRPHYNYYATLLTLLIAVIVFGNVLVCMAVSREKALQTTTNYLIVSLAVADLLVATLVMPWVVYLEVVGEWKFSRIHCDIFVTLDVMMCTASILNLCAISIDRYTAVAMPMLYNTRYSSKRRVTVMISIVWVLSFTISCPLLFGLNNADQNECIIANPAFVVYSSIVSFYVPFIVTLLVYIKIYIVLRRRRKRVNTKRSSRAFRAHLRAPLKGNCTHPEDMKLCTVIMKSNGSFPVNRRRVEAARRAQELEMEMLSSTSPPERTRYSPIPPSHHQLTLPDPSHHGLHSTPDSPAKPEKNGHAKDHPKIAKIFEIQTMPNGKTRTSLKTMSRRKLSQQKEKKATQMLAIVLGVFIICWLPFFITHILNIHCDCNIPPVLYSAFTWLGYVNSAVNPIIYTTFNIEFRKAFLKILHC
UniProt P35462, whole entry: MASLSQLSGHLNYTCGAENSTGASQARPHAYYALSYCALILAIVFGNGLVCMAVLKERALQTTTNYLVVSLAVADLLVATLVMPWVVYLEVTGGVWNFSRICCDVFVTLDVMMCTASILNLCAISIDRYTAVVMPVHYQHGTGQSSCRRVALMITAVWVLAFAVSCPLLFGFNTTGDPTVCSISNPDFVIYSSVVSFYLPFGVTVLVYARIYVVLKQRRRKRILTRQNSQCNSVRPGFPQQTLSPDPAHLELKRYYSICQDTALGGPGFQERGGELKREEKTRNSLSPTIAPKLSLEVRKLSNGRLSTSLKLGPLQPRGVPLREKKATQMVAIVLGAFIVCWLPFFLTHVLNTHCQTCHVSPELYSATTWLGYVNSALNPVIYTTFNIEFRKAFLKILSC

SMILES | Ki (D(2) dopamine receptor [1]) | Ki (D(2) dopamine receptor [2]) | Ki (D(3) dopamine receptor)
CCCNC1CCc2c(O)cccc2C1 (stereo not drawn) | 0.5 nM | 285 nM | 0.75 nM
CCCN(CCC)[C@@H]1CCc2c(O)cccc2C1 |  | 90 nM | 76 nM
CCCN(CCC)C1CCc2c(O)cccc2C1 (single isomer, unassigned) | 14 nM | 6 nM | 0.54 nM
